Measured values as given in patent US20250345339A1, “DOSES AND REGIMENS OF HER2 INHIBITORS” (IAMBIC THERAPEUTICS, INC., priority 2024, published 2025).
“Also recorded” adds a separate entry of the source.

Key:
[1] = system: BT-474 breast cancer cell line; test: BT-474 xenograft tumor growth inhibition; type: in vivo, mouse
Experimental: The BT-474 cell line was maintained in vitro as monolayer culture in DMEM supplemented with 10% fetal bovine serum and 0.01 mg/mL BI at 37° C. in an atmosphere of 5% CO2 in air. The tumor cells were routinely sub-cultured after confluence by trypsin-EDTA treatment, not to exceed 4-5 passages. The cells growing in an exponential growth phase were harvested and counted for tumor inoculation. One day before inoculating the BT-474 tumor cells, estradiol benzoate injection was administered by subcutaneous (s.c.) injection at the dose of 40 g/20 L/mouse, twice weekly till the end of the study. Each mouse was inoculated subcutaneously on the right flank (efficacy study and part II of PK study) or orthotopic on 4th right mammary fat pad (part I of PK study) with tumor cells with the single cell suspension (1×107) in 200 μL DMEM and Matrigel mixture (1:1 ratio) without serum for the tumor development.
Tumor size and body weight measurement was conducted twice weekly.

[2] = system: NCI-N87-luciferase gastric cancer cell line; test: Intracranial NCI-N87-luciferase tumor model
NCI-H2030 = NCI-H2030 tumor model; type: in vivo, mouse; conditions: 10 mg/kg IV Q3W for 30 days

## fam-trastuzumab deruxtecan-nxki [T-DXd]
[1]; 5 mg/kg Q3W IV
  tumor regression (TR): T-DXd: 64% TR at 5
[1]; clinical reference compounds
  TR compared with Compound 5: significantly less TR than Compound 5
[2]; NCI-N87-luc intracranial xenograft
  antitumor effect in intracranial model, in words: tumor stasis; also recorded: tumor static effect
[2]; intracranial NCI-N87, 5 mg/kg IV Q3W
  tumor regression, in words: no tumor regression
[2]; intracranial NCI-N87, 5 mg/kg Q3W IV, Day 5
  Tumor Growth Inhibition: 47%
NCI-H2030
  TGI: 84%
